Test results taken from article PMC6814236, “Monitoring and characterizing soluble and membrane-bound ectonucleotidases CD73 and CD39” (PLoS ONE, 2019).

Target: T1, CD39 (His-Tag Human) (Homo sapiens, UniProt P49961)
T1 construct: His; purchased R&D Systems
T1 sequence (P49961 1-510): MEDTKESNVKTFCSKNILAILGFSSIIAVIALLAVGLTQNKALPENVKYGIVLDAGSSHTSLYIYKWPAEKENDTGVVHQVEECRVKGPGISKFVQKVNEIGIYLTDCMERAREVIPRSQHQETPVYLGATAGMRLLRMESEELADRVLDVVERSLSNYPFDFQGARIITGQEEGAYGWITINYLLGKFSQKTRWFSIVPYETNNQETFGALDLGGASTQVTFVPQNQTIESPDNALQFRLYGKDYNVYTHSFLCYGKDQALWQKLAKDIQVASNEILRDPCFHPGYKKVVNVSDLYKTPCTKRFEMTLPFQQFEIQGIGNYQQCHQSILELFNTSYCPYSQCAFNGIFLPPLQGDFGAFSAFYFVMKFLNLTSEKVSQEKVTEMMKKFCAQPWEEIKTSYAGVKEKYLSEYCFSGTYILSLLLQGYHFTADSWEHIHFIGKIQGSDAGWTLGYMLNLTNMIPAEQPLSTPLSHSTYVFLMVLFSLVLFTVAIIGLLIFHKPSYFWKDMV
Assay: Enzyme activity of purified CD39 with ATP or ADP as substrate
Assay type: biochemical
Details: 0.1 ng enzyme
Experimental: • 2 Determination of enzyme activity of purified cytosolic cN-II. Activity of purified cN-II (Human cytosolic 5'-Nucleotidase) was determined using 25μl reaction buffer (50mM HEPES, pH 7.0, 100mM KCl, 20mM MgCl2, 5mM DTT, 2.5mM dATP, and 0.1mg/ml BSA) containing enzyme and AMP substrate at 10μM (96-well format). Reaction continued at 37°C for 60 minutes or for a certain time period and terminated by the addition of equal volume (25μl) of AMP-Glo™ Reagent I. Reactions were mixed well and incubated for additional 30 min at 23°C. This was followed by the addition of 50 μl of AMP Detection Solution (10μl of AMP-Glo™ Reagent II per ml of Kinase-Glo® One Solution) and incubated for additional 60 min at 23°C before reading luminescence. • 3 Determination of enzyme activity of purified CD39. […] When ATP is used as a substrate, an equal volume of Kinase-Glo® One Solution was added to CD39 reactions and incubated for 15 min before reading luminescence using a luminometer. When ADP is used as a substrate for CD39, after enzyme reaction completion, an equal volume of AMP Detection Solution with a known CD39 known inhibitor, such as POM 1 at 50μM final concentration was added. Reactions were mixed well and incubated for 60min before reading luminescence using luminometer. For enzyme dilution, reaction buffer can be used for dilution of enzymes.

CCN(CC)c1ncnc2c1ncn2[C@@H]1O[C@H](COP(=O)(O)OP(=O)(O)C(Br)(Br)P(=O)(O)O)[C@@H](O)[C@H]1O.[Na+].[Na+].[Na+] [ARL 67156, 6-N,N-Diethyl-D-β,γ-dibromomethyleneATP trisodium salt]
IC50 (10 μM ADP as substrate): 280 µM
IC50 (ATP (10 μM) as substrate): 4.48 µM
